IC50 data for 1 compound are collected here from patent US10253035B2 (priority 2016, dated 2019).

The chains behind the UniProt entries cited, without tags or fusion partners. Residues count along the entry.
UniProt P9WFK7, 2-402 limits assumed: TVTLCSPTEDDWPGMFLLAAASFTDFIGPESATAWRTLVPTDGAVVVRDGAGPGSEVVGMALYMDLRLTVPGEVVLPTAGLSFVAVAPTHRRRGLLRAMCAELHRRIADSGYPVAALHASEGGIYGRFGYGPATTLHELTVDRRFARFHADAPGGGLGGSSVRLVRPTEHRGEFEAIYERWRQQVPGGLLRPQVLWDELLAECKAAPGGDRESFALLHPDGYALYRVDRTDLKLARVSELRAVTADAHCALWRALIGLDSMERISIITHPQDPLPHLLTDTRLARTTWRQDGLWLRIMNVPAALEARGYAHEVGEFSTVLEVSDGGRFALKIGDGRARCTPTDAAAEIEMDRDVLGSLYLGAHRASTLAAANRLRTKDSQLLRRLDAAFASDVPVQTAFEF

The test deals with Eis_Mtb (Mycobacterium tuberculosis, UniProt P9WFK7). Put plainly: biochemical.

On to `O=C(C[N+]1=C(c2ccc(F)c(F)c2)c2cccn2CC1)c1ccccc1` [Compound 3a], for which the IC50 (commonly the concentration needed to halve the response being measured) is 150 ± 50 nM.
